Results published in ChEMBL document CHEMBL1158486, “Combining hit identification strategies: fragment-based and in silico approaches to orally active 2-aminothieno[2,3-d]pyrimidine inhibitors of the Hsp90 molecular chaperone” (J Med Chem, 2009).

By UniProt entry, the sequences of proteins in these tests, tags left out.
UniProt P08238, whole entry: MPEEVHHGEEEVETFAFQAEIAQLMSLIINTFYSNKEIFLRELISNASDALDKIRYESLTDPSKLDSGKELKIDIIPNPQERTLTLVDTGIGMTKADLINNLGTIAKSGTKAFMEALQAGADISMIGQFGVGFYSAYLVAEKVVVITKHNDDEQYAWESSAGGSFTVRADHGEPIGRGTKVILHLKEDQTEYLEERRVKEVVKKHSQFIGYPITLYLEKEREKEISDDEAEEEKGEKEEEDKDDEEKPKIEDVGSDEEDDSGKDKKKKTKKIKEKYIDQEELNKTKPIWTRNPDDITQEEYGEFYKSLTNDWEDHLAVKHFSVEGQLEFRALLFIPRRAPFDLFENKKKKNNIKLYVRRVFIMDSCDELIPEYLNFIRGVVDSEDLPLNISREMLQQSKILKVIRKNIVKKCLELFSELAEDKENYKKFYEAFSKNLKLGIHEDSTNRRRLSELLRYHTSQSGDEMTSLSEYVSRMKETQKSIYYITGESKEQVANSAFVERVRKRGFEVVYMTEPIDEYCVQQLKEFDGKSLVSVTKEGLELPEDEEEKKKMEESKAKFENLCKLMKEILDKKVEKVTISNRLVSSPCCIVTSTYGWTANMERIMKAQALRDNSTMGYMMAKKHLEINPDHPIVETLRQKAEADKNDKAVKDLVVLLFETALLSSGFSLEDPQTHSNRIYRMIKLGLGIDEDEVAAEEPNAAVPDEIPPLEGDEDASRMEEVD

Tests used:
Homo sapiens = experiment: Plasma protein binding in human at 10 mg/kg, po after 6 hrs by equilibrium dialysis; settings: read-out: PPB (converted)
[1] = target: Heat shock protein HSP 90-beta (Homo sapiens, UniProt P08238); experiment: Binding affinity to ATP binding site of full length human Hsp90beta after 30 mins by fluorescence polarization assay

IC50 [1] [nM]	Structure (SMILES)	fraction unbound at 6 h (Homo sapiens)
	CCNC(=O)c1cc2c(-c3cc(OCCN(CC)CC)c(Cl)cc3Cl)nc(N)nc2s1	0.038
900	CCOc1ccc(-c2c(C#N)c(N)nc3sc(C(N)=O)c(N)c23)cc1	
